Data published in article PMC4216217 (Journal of Medicinal Chemistry, 2014).

By UniProt entry, the sequences of proteins in these tests, tags left out.
UniProt P19020, whole entry: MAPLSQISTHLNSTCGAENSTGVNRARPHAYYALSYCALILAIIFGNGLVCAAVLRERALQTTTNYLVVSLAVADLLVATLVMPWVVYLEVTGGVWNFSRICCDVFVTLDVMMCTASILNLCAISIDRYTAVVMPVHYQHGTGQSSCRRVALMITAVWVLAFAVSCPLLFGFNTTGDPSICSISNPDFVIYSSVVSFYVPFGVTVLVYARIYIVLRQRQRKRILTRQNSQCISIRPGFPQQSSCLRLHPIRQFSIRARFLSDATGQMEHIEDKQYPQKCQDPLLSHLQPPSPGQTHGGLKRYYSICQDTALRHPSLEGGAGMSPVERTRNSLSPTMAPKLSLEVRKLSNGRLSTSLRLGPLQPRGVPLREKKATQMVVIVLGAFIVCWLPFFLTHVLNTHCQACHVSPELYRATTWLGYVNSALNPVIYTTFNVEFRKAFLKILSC

Biological target: rat D3 dopamine receptors (Rattus norvegicus, UniProt P19020)
Format: binding

With CCCN(CC[C@]1(O)C[C@@H](NC(=O)c2ccc3ccccc3c2)C1)C1CC1c1ccc(Cl)cc1 (relative stereo) [(±)-11, N-(cis-3-(2-((((±)-trans)-2-(4-Chlorophenyl)cyclopropyl)(propyl)-amino)ethyl)-3-hydroxycyclobutyl)-2-naphthamide] the “selectivity D3/D2” value was >21000 and the “selectivity for rat D3 receptor over rat D2 receptor” value was > 10000.

With CCCN(CC[C@]1(O)C[C@@H](NC(=O)c2ccc3ccccc3c2)C1)[C@@H]1C[C@H]1c1ccc(Cl)cc1 [(1R,2S)-11, N-(cis-3-(2-(((1R,2S)-2-(4-Chlorophenyl)cyclopropyl)(propyl)-amino)ethyl)-3-hydroxycyclobutyl)-2-naphthamide] the “selectivity D3/D2” value was >100000 and the “selectivity for rat D3 receptor over rat D1-like receptors” value was > 9000 fold.

In the case of CCCN(CC[C@]1(O)C[C@@H](NC(=O)c2ccc3ccccc3c2)C1)[C@H]1C[C@@H]1c1ccc(Cl)cc1 [(1S,2R)-11, N-(cis-3-(2-(((1S,2R)-2-(4-Chlorophenyl)cyclopropyl)(propyl)-amino)ethyl)-3-hydroxycyclobutyl)-2-naphthamide], the “selectivity D3/D2” value is reported as >218.
